Some of the results follow. Inconclusive results are not listed. Active and inactive are the calls of the source. Calls follow the shape of the full dose curve.
Target: Importin subunit beta-1 (Homo sapiens) (UniProt Q14974)
Experiment: qHTS Assay for Inhibitors of Rango (Ran-regulated importin-beta cargo) - Importin beta complex formation;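 also: 0% = DMSO wells and 100% = buffer wells lacking importin beta; nearly all actives have a fitted effect of over 15% in size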
Conditions: Rango CFP/YFP FRET sensor + importin beta, 45 min; at 92.2 µM (top of the series)
Excerpt: NIH Molecular Libraries Probe Production Centers Network [MLPCN] NIH Chemical Genomics Center [NCGC] MLPCN Grant: R03 MH090808-01A1 Assay Submitter (PI): Petr Kalab NCGC Assay Overview: The small GTPase Ran regulates transport of macromolecules between the nucleus and the cytoplasm (nuclear transport) and has important functions in mitotic spindle assembly, nuclear envelope (NE) formation and nuclear pore complex (NPC) assembly. RanGTP gradient is thought to promote spindle assembly by providing a spatial clue to microtubule nucleation and Aurora A activation. Because the localized release and binding of importin alpha cargo relays this spatial clue to SAFs, inhibitors of the Rango - importin beta complex can then be used in further understanding their role in cell cycle specifically in mitosis progression. […] Activation of Aurora A has been linked to different types of cancer and a number of Aurora kinase inhibitors are being developed as potential canter therapeutics therefore, identified inhibitors of this complex could be developed into potential anti-mitotic probes for cancer treatment. Purified recombinant proteins Rango and importin beta were provided by the assay submitter. The assay used a fluorescence resonance energy transfer (FRET) Rango biosensor that contains the IBB of human snurportin 1 flanked by yellow fluorescent protein (EYFP) at the amino terminus and cerulean CFP10 at the carboxy terminus. […] Inhibitors will therefore be identified based on the ability to interfere with the FRET signal decrease. DMSO treated and no importin beta (buffer only) wells were used as negative and positive controls respectively. FRET readings were obtained at two time points. FRET reading prior to importin beta addition (pre-read) were used flag potential compound interference; FRET reading after importin beta addition (post-read) were used to identify inhibitors using the FRET ratio parameter.
NCGC Assay Protocol Summary: Two and a half uL/well of Rango-buffer solution (50 nM Rango, 1x PBS, 1mM DTT, 0.02% Tween-20, 0.1% BSA final concentrations) was dispensed into 1536-well assay plates (Greiner, solid black medium-binding plates) with Aurora Discovery BioRAPTR Flying Reagent Dispenser (FRD; Beckton-Dickenson). Compound solution (23 nL) was transferred to the assay plate using Kalypsys pin tool equipped with a 1536-pin tool and incubated at room temperature for 5 min followed by a FRET pre-read using the PerkinElmer Envision plate reader. Two and a half uL/well of Importin beta - buffer solution (0.125 microM importin beta, 1x PBS, 1mM DTT, 0.02% Tween-20, 0.1% BSA final concentrations) were then added and incubated at room temperature giving a final reaction volume of 5uL. After 45min FRET post-read was obtained via the Envision plate reader using the same optics and settings as the pre-read (CFP/YFP optimized dual optical module D450/D505; excitation mirror CFP 430/24 nm; and emission filters CFP 486/10 nm and YFP 530/10 nm).

Protein sequences, listed by entry. Tags and fused reporters are not part of them.
UniProt Q14974, whole entry: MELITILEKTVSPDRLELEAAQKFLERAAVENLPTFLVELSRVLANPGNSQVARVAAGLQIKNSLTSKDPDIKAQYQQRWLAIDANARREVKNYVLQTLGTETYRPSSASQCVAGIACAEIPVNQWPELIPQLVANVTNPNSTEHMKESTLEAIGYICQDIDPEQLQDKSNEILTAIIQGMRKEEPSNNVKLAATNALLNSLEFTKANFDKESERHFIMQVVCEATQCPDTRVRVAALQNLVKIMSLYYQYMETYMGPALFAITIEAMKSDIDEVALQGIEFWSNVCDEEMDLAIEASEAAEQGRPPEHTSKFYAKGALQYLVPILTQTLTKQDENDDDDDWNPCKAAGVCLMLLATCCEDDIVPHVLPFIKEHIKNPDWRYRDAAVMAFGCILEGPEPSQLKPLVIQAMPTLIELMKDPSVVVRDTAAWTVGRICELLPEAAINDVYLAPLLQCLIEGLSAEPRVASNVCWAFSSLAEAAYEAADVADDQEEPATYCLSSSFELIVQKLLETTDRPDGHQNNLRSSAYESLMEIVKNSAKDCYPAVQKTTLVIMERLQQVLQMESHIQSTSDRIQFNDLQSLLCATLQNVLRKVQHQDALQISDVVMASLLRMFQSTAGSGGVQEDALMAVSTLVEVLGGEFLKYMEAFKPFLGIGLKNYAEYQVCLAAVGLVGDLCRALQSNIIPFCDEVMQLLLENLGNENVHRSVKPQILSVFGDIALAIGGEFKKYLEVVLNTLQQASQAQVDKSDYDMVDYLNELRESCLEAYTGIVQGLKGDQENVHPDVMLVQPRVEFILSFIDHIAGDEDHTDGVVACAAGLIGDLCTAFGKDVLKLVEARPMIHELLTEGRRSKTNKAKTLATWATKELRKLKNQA
UniProt O95149, whole entry partner: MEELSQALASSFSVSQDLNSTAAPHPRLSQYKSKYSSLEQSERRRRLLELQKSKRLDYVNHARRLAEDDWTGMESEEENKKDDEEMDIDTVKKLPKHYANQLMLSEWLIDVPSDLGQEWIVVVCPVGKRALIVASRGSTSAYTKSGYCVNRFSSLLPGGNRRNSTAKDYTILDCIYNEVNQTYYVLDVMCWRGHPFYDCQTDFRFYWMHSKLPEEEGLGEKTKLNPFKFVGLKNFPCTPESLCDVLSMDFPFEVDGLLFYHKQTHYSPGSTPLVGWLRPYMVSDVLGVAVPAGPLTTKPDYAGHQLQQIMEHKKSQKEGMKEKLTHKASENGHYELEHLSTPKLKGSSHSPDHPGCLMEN

Row | Structure (SMILES) | inhibition of complex formation
1 | O=[N+]([O-])c1cc([N+](=O)[O-])c(O)c([N+](=O)[O-])c1.c1ccc(Oc2ccncc2)cc1 | inactive: 6.68%
2 | CCOC(=O)c1ccc(NP(C)(=O)Oc2ccc(OC)cc2)cc1 (configuration not stated) | inactive: 1.68%
3 | CCOP(C)(=S)SCC(=O)NC(C)C(=O)O (configuration not stated) | inactive: 3.7%
4 | O=C(OC1CN2CCC1CC2)c1cccc([N+](=O)[O-])c1 (configuration not stated) | inactive: -0.844%
5 | CP(=O)(Nc1ccccn1)Oc1ccc(Cl)cc1 (configuration not stated) | inactive: -1.52%
6 | CCC(C)N(CC(C)C)C(=S)SC(NC(C)=O)C(Cl)(Cl)Cl (configuration not stated) | inactive: -0.579%
7 | COP1(=S)c2c(C)nn(CCC#N)c2N=C(c2ccc(F)cc2)N1C (configuration not stated) | inactive: 1.06%
8 | CP(=O)(Nc1ccc(SC(F)(F)F)cc1)Oc1ccc(Cl)cc1 (configuration not stated) | inactive: -3.7%
9 | Cc1cccc(C)c1OP(C)(=O)Nc1ccc(SC(F)(F)F)cc1 (configuration not stated) | inactive: -1.94%
10 | CP(=O)(Oc1ccccc1)OC(c1ccccc1)C(F)(F)F (configuration not stated) | inactive: 5.5%
11 | CP(=O)(NC(=O)Nc1ccccc1)Oc1ccccc1 (configuration not stated) | inactive: 2.2%
12 | O=C(COc1ccccc1)OC1CN2CCC1CC2 (configuration not stated) | inactive: 0.355%
13 | CCc1ccc(OP(C)(=O)N2CCN(c3ccc([N+](=O)[O-])cc3)CC2)cc1 (configuration not stated) | inactive: -3.08%
14 | O=C(Nc1ccncc1[N+](=O)[O-])c1ccc([N+](=O)[O-])cc1[N+](=O)[O-] | inactive: -1.95%
15 | Cc1cc(C)cc(OP(C)(=O)Nc2ccc(SC(F)(F)F)cc2)c1 (configuration not stated) | inactive: 0.648%
16 | CCOC(=O)Nc1cccc([As](=O)(O)O)c1 | inactive: -2.72%
17 | CP(=S)(Nn1cnnc1)Oc1ccccc1 (configuration not stated) | inactive: -2.98%
18 | CP(=O)(Nc1ccccc1Br)Oc1ccccc1 (configuration not stated) | inactive: 3.23%
19 | O=[N+]([O-])c1ccc(Nc2ccc(Oc3ccc([N+](=O)[O-])cc3[N+](=O)[O-])cc2)c([N+](=O)[O-])c1 | inactive: 4.52%
20 | Cc1cc(SC(NC=O)C(Cl)(Cl)Cl)ncn1 (configuration not stated) | inactive: -0.0243%
21 | O=P(Nc1ccccn1)(c1cccc2ccccc12)c1cccc2ccccc12 | inactive: -0.912%
22 | COc1ccccc1OP(C)(=O)Nc1ccccc1 (configuration not stated) | inactive: -0.296%
23 | CC1CCNP(=O)(N(CCCl)CCCl)O1 (configuration not stated) | inactive: 0.466%
24 | CCOC(=O)Nc1ccc([As](=O)(O)O)c(O)c1 | inactive: -1.4%
25 | CCCCOc1ccc(C(=O)NCC2(N3CCCCC3)CCCCC2)cc1OC | inactive: -8.44%
26 | CC(C)(C)C(=O)NC(Sc1ccncn1)C(Cl)(Cl)Cl (configuration not stated) | inactive: -0.942%
27 | O=[N+]([O-])c1ncn(CCn2ncnc2[N+](=O)[O-])n1 | inactive: -1.9%
